Data reported in patent US20260048041A1, “COMPOSITION FOR REMOVING HELICOBACTER PYLORI COMPRISING ZASTAPRAZAN OR PHARMACEUTICALLY ACCEPTABLE SALT THEREOF” (JEIL PHARMACEUTICAL CO., LTD., priority 2022, published 2026).

Tested on: Helicobacter pylori SS1 (mouse colonizing strain)
Test: Anti-H. pylori in vitro efficacy test, MIC and MBC by microdilution (CLSI)
Type: cell-based
Settings: unit not given in table (method uses μg/mL)
Protocol: Helicobacter pylori SS1 (mouse colonizing strain): A strain known as Sydney strain. The strain is CagA-positive and VacA-positive and has been confirmed to infect and colonize in C57BL/6 mice. The strain is used in animal testing. An antibiotic susceptibility testing was performed using the microdilution method according to the CLSI guideline. […] The bacteria were inoculated into wells containing only medium without antibiotics to prepare the positive control group, and the wells containing only medium without antibiotics or inoculated bacteria were used as the negative control group. The concentration range of the test substances, zastaprazan (JP-1366) and fexuprazan, was determined through preliminary experiments. […] The lowest concentration at which no bacterial growth was observed was determined as the MIC. […] The lowest concentration at which no bacteria growth occurred was determined as the MBC. […] All tests were performed in duplicate, and the results were determined by conducting the experiments in triplicate.

SMILES: CC1(C)S[C@@H]2[C@H](NC(=O)[C@H](N)c3ccc(O)cc3)C(=O)N2[C@H]1C(=O)O [Amoxicillin]
- MIC: 0.125~0.25
